# Ab-14 heavy chain CDR variants: yeast mating affinities

From the AlphaSeq antibody data of Li et al. 2023 (doi:10.1038/s41467-023-39022-2), copy in the FLAb collection.

Binding partner: SARS-CoV-2 spike HR2 peptide, sequence PDVDLGDISGINAS.

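The variants were designed computationally from a first round of random CDR variants and then made and measured. Several design methods are mixed in this list. AlphaSeq pools MATa yeast showing the antibodies with MATalpha yeast showing the peptide. Binding brings cells together so that they mate, and sequencing counts the barcode pairs among the diploids. Each replicate has its own calibration line, from reference interactions of the BCL2 family. The assay was run in six technical replicates.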

The variants keep the light chain, the linker and the frameworks of Ab-14 (scFv order VH, a (GGGGS)3 linker, VL).
VH: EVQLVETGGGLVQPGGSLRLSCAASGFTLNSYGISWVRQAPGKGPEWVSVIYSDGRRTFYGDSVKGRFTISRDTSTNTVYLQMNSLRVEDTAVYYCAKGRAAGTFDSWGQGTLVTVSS
VL: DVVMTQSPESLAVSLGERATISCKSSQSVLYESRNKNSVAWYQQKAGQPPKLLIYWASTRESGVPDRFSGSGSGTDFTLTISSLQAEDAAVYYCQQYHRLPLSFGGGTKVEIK

Variants are written as CDR1, CDR2 and CDR3 of the heavy chain (limits as in the source). Parent: GFTLNSYGIS, VIYSDGRRTFYGDSVK, GRAAGTFDS.
Values are apparent Kd, the geometric mean of the replicates that gave a signal; lower means stronger binding.
A pair that was not seen in any replicate is written "no signal"; this usually means weak binding, but a binder can also be missed.
In the paper, a design with two or fewer of six values counts as a poor binder.

CDR-H1	CDR-H2	CDR-H3	Kd	seen in	control signals
GFNLEEYGIS	VIYADGKRTKYSENVK	GHIGNVRVV	no signal	0 of 6	0 of 18
GFNLNSYGIS	VIYSDGRRTFYTDSVK	GMFAGTFDS	100 nM	6 of 6	0 of 18
GFTLNSYGIS	VIYSDGYRTFYGDSVK	GRAEGTFDS	no signal	0 of 6	0 of 18
KQTLNSYGIS	VIYSDGRRTFYGDSVK	GRHAGTFDS	no signal	0 of 6	0 of 18
GFDLDQYGIS	VIYADGRRTAYANDVK	GKYAGIFLD	no signal	0 of 6	1 of 18
GMDLQEYGIS	VIYSDGVREAYTNSFK	GQIAGTIDL	no signal	0 of 6	0 of 18
GFDLDEYGIS	VIYADGQRTAYSDSVK	GEVAGTFDL	630 pM	6 of 6	1 of 18
GFTLNSYGIS	VIYSDGRRTFYDDSVK	GLLAGTFDT	3.9 nM	6 of 6	0 of 18
GFTLDSYGIS	VIYSDGRRTFYGDSVK	SRAAGTALS	20 nM	6 of 6	0 of 18
GGDIQEYGIS	VIYADGQRAQYADAVK	GTIGGIFSD	no signal	0 of 6	0 of 18
GFDLDEYGIS	VIYADGKRTAYADSVK	GKNAGTFDV	510 pM	6 of 6	0 of 18
GFTLNEYGIS	VIYSDGRRTFYSDSVK	GRAAGVFDS	210 nM	4 of 6	1 of 18
GFDLNEYGIS	VIYADGRRTFYTDSVK	GEAAGTFDV	240 pM	6 of 6	0 of 18
GFWLNSYGIS	VIYSDGRRTFYADSVK	GWMAGTFDS	65 nM	3 of 6	0 of 18
GFAINSYGIS	VIYSDGRRTFYGDSVK	GRAAGTFDS	20 nM	2 of 6	0 of 18
GFTLNSYGIS	VIYADGRATFYGDSVK	GRAAGTPKS	no signal	0 of 6	0 of 18
GFDLDEYGIS	VIYADGMRTAYSDSVK	GTNAGTFDV	1.4 nM	6 of 6	0 of 18
GFSLNKYGIS	VIYSDGRRTFYGDSVK	GRQAGTFDS	34 nM	5 of 6	1 of 18
GFTLNSYGIS	VIYSDGRRTFYGDSVK	GQTAGTFDV	14 nM	4 of 6	0 of 18
GFTLDEYGIS	VIYADGRRTFYTDSVK	GENAGTFDV	1.6 nM	6 of 6	0 of 18
GFDLNSYGIS	VIYSDGRRTAYIDSVK	GRAAGTFDS	920 pM	6 of 6	0 of 18
GKDLEEYGIS	VIYADGRRSDYTDNVK	GHVGYIFMM	no signal	0 of 6	0 of 18
GFTLNSYGIS	VIYSDARRTFYHDSVK	GRDAGTFDS	no signal	0 of 6	0 of 18
GFSLNSYGIS	VIYSDGRRTFYGDSVK	GRLAGTFDT	2.6 nM	6 of 6	1 of 18
GFDLNEYGIS	VIYADGKRTFYSDSVK	GEAAGTFDV	2.8 nM	6 of 6	0 of 18
GFHLNSYGIS	VIYSDGRRTFYIDSVK	GRHAGTFDS	no signal	0 of 6	0 of 18
KFSLNTYGIS	VIYSDGRRTFYGDSVK	GRTAGTFDS	57 pM	6 of 6	0 of 18
GFNLDEYGIS	VIYADGMRTFYADSVK	GNVAGTFDL	480 pM	6 of 6	0 of 18
GFDLNEYGIS	VIYADGQRTAYADSVK	GNQAGTFDT	390 pM	6 of 6	0 of 18
GFDLAEYGVS	VIYADGKRTAYSDHVK	GENGGFFDL	no signal	0 of 6	1 of 18
GFTLNQYGIS	VIYSDGRRQFYSDSVK	GRAAGFFDS	14 µM	1 of 6	1 of 18
GFELNSYGIS	VIYSDGRRTFYGDSVK	GQAAGTFDW	no signal	0 of 6	0 of 18
GFSLNSYGIS	VIYSDGRRTFYSDSVK	GQAAGTFDT	630 pM	6 of 6	1 of 18
GFDLNEYGIS	VIYADGRRTAYADSVK	GNNAGTFDM	2.0 nM	6 of 6	0 of 18
GFNLNEYGIS	VIYADGMRTFYTDSVK	GETAGTFDL	370 pM	6 of 6	0 of 18
GFWLNSYGIS	VIYSDGRRTFYADSVK	GRNAGTFDS	66 nM	6 of 6	0 of 18
GFTLNSYGIS	VIYADGRRTFYGDSVK	GRAQFTFDS	no signal	0 of 6	0 of 18
GFDLNEYGIS	VIYADGRRTFYADSVK	GEAAGTFNL	820 pM	6 of 6	0 of 18
GFSLNSYGIS	VIYSDGRRTFYQDNVK	GETAGTFDS	1.7 nM	6 of 6	0 of 18
GFTLNSYGIS	VIYSDGKRTFYADQVK	GREAGTFDS	2.9 nM	6 of 6	0 of 18
GFTLNDYGIS	VIYSDGRRTWYGDSVK	GRAAGTFVS	no signal	0 of 6	0 of 18
GFQLDEYGIS	VIYADGVRSSYVDSVK	GEITGTFSE	no signal	0 of 6	0 of 18
GFDLNSYGIS	VIYSDGRRTFYHDSVK	GNAAGTFDS	3.3 nM	6 of 6	1 of 18
GFTLNDYGIS	VIYSDGRRTFYGDSVK	GKAAGTFTS	180 nM	1 of 6	0 of 18
GFDLNEYGIS	VIYADGRRTFYADSVK	GNHAGTFDI	no signal	0 of 6	0 of 18
GFDLNEYGIS	VIYADGMRTYYADSVK	GNEAGTFDI	840 pM	6 of 6	0 of 18
GFDLNEYGIS	VIYADGSRQMYADNVK	GVMGIMKEV	100 nM	5 of 6	0 of 18
GFDLQEYGIS	VIYADGSRTAYVQNVK	GLTLDSYVV	no signal	0 of 6	1 of 18
GFDLDEYGIS	VIYADGIRYHYQDSVK	GNVVGSVLY	no signal	0 of 6	0 of 18
GFTLDSYGIS	VIYSDGRRTFYGDSVK	GRAAGTFDA	21 nM	10 of 12	0 of 36
GFTLESYGIS	VIYADGRRTFYGDSVK	GRAAGTFDS	1.4 nM	12 of 12	0 of 36

3 of these entries, quoted again:

{"CDR-H1": "GFAINSYGIS", "CDR-H2": "VIYSDGRRTFYGDSVK", "CDR-H3": "GRAAGTFDS", "Kd": "20 nM", "seen in": "2 of 6", "control signals": "0 of 18"}
{"CDR-H1": "GFNLNSYGIS", "CDR-H2": "VIYSDGRRTFYTDSVK", "CDR-H3": "GMFAGTFDS", "Kd": "100 nM", "seen in": "6 of 6", "control signals": "0 of 18"}
{"CDR-H1": "GFDLNEYGIS", "CDR-H2": "VIYADGQRTAYADSVK", "CDR-H3": "GNQAGTFDT", "Kd": "390 pM", "seen in": "6 of 6", "control signals": "0 of 18"}

Where one sequence has several entries in the source, the replicates are pooled.
Values of this round are not directly comparable with the first-round values of the same sequences.
Of ten entries with the parent sequence, four were seen in most replicates (averages 2.2 nM to 240 nM), three in one and three in none, so single entries are noisy.
Empty control strains, which show no peptide, gave a signal in 1% of pairings with all heavy chain designs; the median was 120 nM and 95% of these signals were weaker than 7.0 nM. No background was subtracted. The control count says in how many pairings with the empty strains this scFv gave a signal.